Experiments:
[1] = biological target: CDK2 (Homo sapiens, UniProt P24941); experiment: CDK2 degradation by immunoblotting in OVCAR-8 cells; details: read-out: CDK2 DC50, (OVCAR-8, 24 h)
Protocol: (§1) CDK2 and CDK1 Degradation by Immunoblotting
(§2) Ovarian cancer cell line OVCAR-8 were cultured in 12-well plates in complete growth medium. A serial dilution of each compound was added to individual wells from a 2× stock solution, and cells were cultured for 24 hours. Cells were collected by centrifugation, and cell pellets lysed with addition of chilled RIPA buffer supplemented with protease/phosphatase inhibitors followed by incubation for 20 minutes on ice. Lysates were clarified by centrifugation and 5×SDS loading buffer was added to the supernatant followed by heating to 100° C. for 10 minutes. An aliquot of the samples were separated by SDS-PAGE and transferred to a nitrocellulose membrane. Immunoblotting was performed according to standard procedures using anti-CDK2 primary antibody (Abcam ab32147) at 1:1000 dilution and IRDye 800CW goat anti-Rabbit secondary antibody (LICOR) and imaged using a LICOR Odyssey instrument. Blots were stained with anti-beta-Actin primary antibody (Cell Signaling Technology mAb #4970) for normalization. The normalized CDK2/Actin values were calculated as a percent of DMSO treated cells and plotted to determine the concentration at which 50% of CDK2 signal is decreased (DC50). The determination of CDK1 degradation was determined similarly using anti-CDK1 primary antibody (Abcam ab131450).

The chains behind the UniProt entries cited, without tags or fusion partners.
UniProt P06493, whole entry: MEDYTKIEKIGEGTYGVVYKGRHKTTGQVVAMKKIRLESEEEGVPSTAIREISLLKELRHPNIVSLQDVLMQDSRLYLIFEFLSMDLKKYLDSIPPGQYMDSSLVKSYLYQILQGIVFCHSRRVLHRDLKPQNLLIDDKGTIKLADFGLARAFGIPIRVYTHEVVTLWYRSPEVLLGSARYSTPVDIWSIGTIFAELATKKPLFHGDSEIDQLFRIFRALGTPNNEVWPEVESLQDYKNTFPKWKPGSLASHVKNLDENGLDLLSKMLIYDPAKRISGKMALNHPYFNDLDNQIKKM

[2] = biological target: CDK1 (Homo sapiens, UniProt P06493); experiment: CDK1 degradation by immunoblotting in OVCAR-8 cells; details: read-out: CDK1 DC50, (OVCAR-8, 24 h)
Protocol: as §1, §2

DC50 [1]: 10 to 100 nM
DC50 [2]: > 5000 nM
Structure (SMILES): Cc1cc(S(=O)(=O)NCCOCCOCCOCCOCCCc2cccc3c2n(C)c(=O)n3C2CCC(=O)NC2=O)ccc1Nc1ncc2cc(C(F)F)c(=O)n([C@@H]3CCC[C@@]3(C)O)c2n1 (some centres unmarked)
